pKi: −log10 of the molar value.
Target: D(4) dopamine receptor (Homo sapiens, UniProt P21917)

Chains of the proteins cited; added tags and fusions are not shown.
UniProt P21917, whole entry: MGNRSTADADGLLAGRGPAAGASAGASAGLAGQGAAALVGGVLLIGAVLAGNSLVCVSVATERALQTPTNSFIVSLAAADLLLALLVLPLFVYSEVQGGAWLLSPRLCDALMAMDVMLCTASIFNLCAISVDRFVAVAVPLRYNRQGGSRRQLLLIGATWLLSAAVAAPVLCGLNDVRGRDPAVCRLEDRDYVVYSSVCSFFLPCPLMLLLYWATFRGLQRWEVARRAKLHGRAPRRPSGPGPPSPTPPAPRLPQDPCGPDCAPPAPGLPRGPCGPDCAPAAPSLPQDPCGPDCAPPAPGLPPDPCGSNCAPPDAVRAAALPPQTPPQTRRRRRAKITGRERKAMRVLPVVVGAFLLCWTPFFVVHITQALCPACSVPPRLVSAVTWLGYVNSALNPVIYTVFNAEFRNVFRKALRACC

pKi: 5.68
Compound: CCN1CCC[C@H]1CNC(=O)c1cc(S(N)(=O)=O)ccc1OC [SULPIRIDE]
